Reference: US11111214B2 (priority 2013, dated 2021)

Tests used:
[1] = target: KOR (kappa opioid receptor) (Homo sapiens, UniProt P41145); conditions: read-out: Kappa receptor activity EC50 cAMP; inhibition of cAMP accumulation, forskolin 20 μM, 45 min
[2] = target: recombinant human kappa (KOR) opioid receptor (Homo sapiens, UniProt P41145); test: Radioligand competition binding assay, kappa opioid receptor (KOR); conditions: for IC50: read-out: Kappa receptor binding IC50, [3H]diprenorphine 1 nM, CHO-K1 membranes, compounds tested as HCl salts; for Ki: read-out: Kappa receptor binding Ki, Cheng Prusoff correction with experimental Kd of radioligand
[3] = Hepatic clearance using rat cryopreserved hepatocytes; conditions: 500 nM; for In vitro Hepatocyte Clearance, Rat CL: predicted in vivo hepatic clearance by well-stirred model
[4] = target: recombinant human mu (MOR) opioid receptor (Homo sapiens, UniProt P35372); test: Radioligand competition binding assay, mu opioid receptor (MOR); conditions: for Mu receptor % inhibition at single concentration, % inhibition @ 10 μM: 10 μM test compound, [3H]naloxone 4 nM, inhibition of specific binding; for IC50: read-out: Mu receptor binding IC50, CHO-K1 membranes, [3H]naloxone
[5] = Hepatic clearance using human cryopreserved hepatocytes; conditions: 500 nM; for In vitro Hepatocyte Clearance, Human CL: predicted in vivo hepatic clearance by well-stirred model

What does the source list for `CN(C(=O)Cc1ccc(Cl)c(Cl)c1)[C@H](CN1CCC(F)(F)C1)c1ccccc1`?
EC50 [1]: 2.34 nM; IC50 [2]: 34.6 nM; Ki [2]: 7.98 nM

Which EC50 [1] does the source give for `COC(C(=O)N(C)[C@H](CN1CCCC1)c1ccccc1)c1ccccc1` (some centres unmarked) here?
The EC50 was 0.52 nM.

And the IC50 [2]?
The IC50 was 12.2 nM.

What about the Ki [2] of the same molecule?
The Ki was 2.82 nM.

For `COCCO[C@H]1CCN(C[C@H](c2ccccc2)N(C)C(=O)Cc2ccc(Cl)c(Cl)c2)C1.Cl`, which “In vitro Hepatocyte Clearance, Rat % hep Blood flow” value [3] is on record?
The value was 83.0%.

What about the “In vitro Hepatocyte Clearance, Rat CL” value [3] of the same molecule?
The value was 50.1 mL/min/kg.

And the “Mu receptor % inhibition at single concentration, % inhibition @ 10 μM” value (“Mu receptor % inhibition” below) [4]?
The value was 79.1%.

And the “In vitro Hepatocyte Clearance, Human % hep Blood flow” value [5]?
The value was 82.0%.

What about the “In vitro Hepatocyte Clearance, Human CL” value [5] of the same molecule?
Its value is 19.0 mL/min/kg.

With `CN(C(=O)Cc1ccc(C(F)(F)F)cc1)[C@H](CN1CC[C@H](O)C1)c1ccccc1` as the molecule, how does the EC50 [1] read?
Its EC50 is 0.009 nM.

What about the IC50 [2] of the same molecule?
Its IC50 is 0.16 nM.

And the Ki [2]?
Its Ki is 0.04 nM.

For `CN(C(=O)Cc1ccc(C(F)(F)F)cc1)[C@H](CN1CC[C@H](O)C1)c1ccccc1.Cl`, which “Mu receptor % inhibition” value [4] is on record?
The value was 101.4%.

Which results are given for `CN(C(=O)Cc1ccc(Cl)c(Cl)c1)[C@H](CN1CC[C@H](O)C1)c1ccccc1`?
EC50 [1]: 0.03 nM; In vitro Hepatocyte Clearance, Rat % hep Blood flow [3]: 85.0%; In vitro Hepatocyte Clearance, Rat CL [3]: 51.0 mL/min/kg; Mu receptor % inhibition at single concentration, % inhibition @ 10 μM [4]: 99.8%; IC50 [4]: 10.6 nM; IC50 [2]: 0.13 nM; Ki [2]: 0.03 nM; In vitro Hepatocyte Clearance, Human % hep Blood flow [5]: 89.0%; In vitro Hepatocyte Clearance, Human CL [5]: 20.7 mL/min/kg

Which EC50 [1] does the source give for `CN(C(=O)Cc1ccc(F)c(F)c1)[C@H](CN1CCCC1)c1ccccc1` here?
Its EC50 is 0.09 nM.

What about the IC50 [2] of the same molecule?
Its IC50 is 2.28 nM.

And the Ki [2]?
Its Ki is 0.3 nM.

For `CN(C(=O)Cc1ccc(Cl)c(Cl)c1)[C@H](CN)c1ccccc1`, which EC50 [1] is on record?
The EC50 was 16.4 nM.

And the IC50 [4]?
The IC50 was 178 nM.

And the IC50 [2]?
The IC50 was 59.8 nM.

What about the Ki [2] of the same molecule?
The Ki was 7.8 nM.

For `COCCO[C@H]1CCN(C[C@H](c2ccccc2)N(C)C(=O)Cc2ccc(Cl)c(Cl)c2)C1`, which EC50 [1] is on record?
Its EC50 is 1.2 nM.

And the IC50 [2]?
The IC50 was 7.5 nM.

And the Ki [2]?
Its Ki is 1.7 nM.

For `CN(C(=O)Cc1ccc(Cl)c(Cl)c1)[C@H](CN1C[C@@H](O)[C@H](O)C1)c1ccccc1.Cl`, which “Mu receptor % inhibition” value [4] is on record?
Its value is 78.0%.

With `CN(C(=O)Cc1ccc(Cl)c(Cl)c1)[C@H](CN1CCC(F)(F)C1)c1ccccc1.Cl` as the molecule, how does the “Mu receptor % inhibition” value [4] read?
Its value is 55.6%.

For `COC(C(=O)N(C)[C@H](CN1CCCC1)c1ccccc1)c1ccccc1.Cl` (some centres unmarked), which “Mu receptor % inhibition” value [4] is on record?
The value was 88%.

What does the source list for `CN(C(=O)Cc1ccc(Cl)c(Cl)c1)[C@H](CN1CCCC1)c1ccccc1` [ICI-199,441, reference compound]?
EC50 [1]: 0.05 nM; Mu receptor % inhibition at single concentration, % inhibition @ 10 μM [4]: 96.3%; IC50 [4]: 137 nM; IC50 [2]: 0.35 nM; Ki [2]: 0.08 nM

For `CN(C(=O)Cc1ccc(F)cc1F)[C@H](CN1CCCC1)c1ccccc1`, which EC50 [1] is on record?
Its EC50 is 0.93 nM.

And the “Mu receptor % inhibition” value [4]?
The value was 67.7%.

And the IC50 [2]?
The IC50 was 4.86 nM.

And the Ki [2]?
The Ki was 1.12 nM.

For `CN(C(=O)Cc1ccccn1)[C@H](CN1CCCC1)c1ccccc1`, which EC50 [1] is on record?
Its EC50 is 30.1 nM.

What about the “Mu receptor % inhibition” value [4] of the same molecule?
Its value is 50.4%.

And the IC50 [2]?
Its IC50 is 48.5 nM.

What about the Ki [2] of the same molecule?
The Ki was 11.2 nM.

With `CN(C(=O)Cc1ccc(F)c(F)c1)[C@H](CN1CCCC1)c1ccccc1.Cl` as the molecule, how does the “Mu receptor % inhibition” value [4] read?
The value was 75.0%.

What does the source list for `CN(C(=O)Cc1ccc(Cl)nc1)[C@H](CN1CCCC1)c1ccccc1`?
EC50 [1]: 0.92 nM; Mu receptor % inhibition at single concentration, % inhibition @ 10 μM [4]: 73.7%; IC50 [2]: 3.95 nM; Ki [2]: 0.91 nM

For `CN(C(=O)Cc1ccc(Cl)c(Cl)c1)[C@H](CN)c1ccccc1.Cl`, which “Mu receptor % inhibition” value [4] is on record?
Its value is 95.6%.

For `CN(C(=O)Cc1ccc(Cl)c(Cl)c1)[C@H](CN1CC[C@H](O)C1)c1cccc(N)c1`, which EC50 [1] is on record?
Its EC50 is 0.02 nM.

And the “Mu receptor % inhibition” value [4]?
The value was 101%.

What about the IC50 [2] of the same molecule?
Its IC50 is 0.23 nM.

And the Ki [2]?
The Ki was 0.05 nM.

Which results are given for `CN(C(=O)Cc1ccc(Cl)c(Cl)c1)[C@H](CN1C[C@@H](O)[C@H](O)C1)c1ccccc1`?
EC50 [1]: 0.18 nM; IC50 [2]: 1.08 nM; Ki [2]: 0.25 nM

What does the source list for `CN(C(=O)C(c1ccccc1)c1ccccc1)[C@H](CN1CC[C@H](O)C1)c1ccccc1` [Asimadoline, asimadoline, reference compound]?
EC50 [1]: 0.41 nM; Mu receptor % inhibition at single concentration, % inhibition @ 10 μM [4]: 46.3%; IC50 [4]: 11600 nM; IC50 [2]: 11.5 nM; Ki [2]: 2.6 nM

Which results are given for `CN(C(=O)Cc1ccc(O)cc1)[C@H](CN1CCCC1)c1ccccc1`?
EC50 [1]: 13.1 nM; Mu receptor % inhibition at single concentration, % inhibition @ 10 μM [4]: 64.8%; IC50 [2]: 66.4 nM; Ki [2]: 15.3 nM

With `CN(C(=O)Cc1ccccc1[N+](=O)[O-])[C@H](CN1CC[C@H](O)C1)c1ccccc1` as the molecule, how does the EC50 [1] read?
Its EC50 is 0.47 nM.

What about the “Mu receptor % inhibition” value [4] of the same molecule?
The value was 67.4%.

What about the IC50 [2] of the same molecule?
The IC50 was 2.9 nM.

What about the Ki [2] of the same molecule?
The Ki was 0.67 nM.

What does the source list for `CN(C(=O)Cc1ccccc1N)[C@H](CN1CC[C@H](O)C1)c1ccccc1`?
EC50 [1]: 1.12 nM; Mu receptor % inhibition at single concentration, % inhibition @ 10 μM [4]: 47.3%; IC50 [2]: 10.5 nM; Ki [2]: 2.43 nM
